From PubChem BioAssay AID1424 (The Scripps Research Institute Molecular Screening Center, 2008) come the findings set out here.

Each structure is given as a SMILES string. Where “and” joins values, the source holds several entries; their conditions need not be identical. Equal entries are not always repeated. The entries are a selection whose mix differs from that of the whole data set. Calls of active or inactive are those of the source.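 The calls were made as follows: active = activation above its plate's cutoff, the mean activation of test wells on that plate plus 3 SD (cut at about 19% in these data); inactive = the rest.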

The test system of this assay is transient receptor potential cation channel N1 (TRPN1/NompC), Danio rerio. Kind of assay: TRPN1 activation via calcium influx – cell-based, HEK293, calcium fluorescence, zebrafish, primary screen (AID 1424).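 Also: 0% = DMSO alone and 100% = 87 µM carbachol.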 Particulars: HEK293 zebrafish TRPN1-YFP, Fluo-8 calcium fluorescence; at 3 µM; active compounds read high; 100% = response to 87 µM carbachol. The method in brief:
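System: zebrafish TRPN1-YFP in HEK293 cells / Dosing: 3 µM single point / Timing: dye loading 1 h at 37 °C, then 30 min room temperature / Signal: Fluo-8 calcium fluorescence, excitation 470-495 nm, emission 515-575 nm / Read-out basis: percent activation from peak over basal fluorescence ratio, control-normalized / Control set: high carbachol 87 µM, low DMSO alone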
Consider `CCC(C)N(CC(C)C)C(=S)SC(NC(C)=O)C(Cl)(Cl)Cl` (centres undefined), for which the activation was inactive: 0.52%.
To `CCOC(=O)c1ccc(NC(=O)C(C)(CCl)SC)cc1` (centres undefined) belongs inactive: 0.06%; to `O=C(COc1ccccc1)OC1CN2CCC1CC2` (centres undefined), inactive: 1.01%.
Under `COP1(=S)c2c(C)nn(CCC#N)c2N=C(c2ccc(F)cc2)N1C` (centres undefined) stands inactive: -0.19%.
Regarding `O=P(Nc1ccccn1)(c1cccc2ccccc12)c1cccc2ccccc12`, the activation is inactive: 1.12%.
Under `Cc1cc(SC(NC=O)C(Cl)(Cl)Cl)ncn1` (centres undefined) stands inactive: 0.17%.
Under `O=[N+]([O-])c1ccc(Nc2ccc(Oc3ccc([N+](=O)[O-])cc3[N+](=O)[O-])cc2)c([N+](=O)[O-])c1` stands inactive: 0.45%; under `CCOC(=O)Nc1cccc([As](=O)(O)O)c1`, inactive: -1.41%; under `Cc1cc(SC(NC(=O)c2ccccc2)C(Cl)(Cl)Cl)nc(C(C)C)n1` (centres undefined), inactive: 1.22%.
Take `CCOC(=O)Nc1ccc([As](=O)(O)O)c(O)c1`: the activation is inactive: -0.95%.
Under `CCN(CC)C(=S)SC(NC=O)C(Cl)(Cl)Cl` (centres undefined) stands inactive: 0.12%; under `CC(C)NC(=O)NP(=O)(Oc1ccccc1)Oc1ccccc1`, inactive: 0.13%.
Under `O=[N+]([O-])c1cc([N+](=O)[O-])c(-c2ccn[nH]2)s1` stands inactive: 0.44%; under `ClCCSc1nnc(-c2cccnc2)o1`, inactive: 1.1%.
To `CC(C)c1ccc(OP(=O)(Nc2ccccn2)Oc2ccccc2F)cc1` (centres undefined) belongs inactive: 0.36%; to `Cc1ccc(OP(=O)(Nc2ccc([N+](=O)[O-])cn2)Oc2ccc(C)cc2)cc1`, inactive: 0.49%; to `Cc1ccc2nc3c(c(C)c2c1)CC(C(Cl)Cl)S3` (centres undefined), inactive: -3.48%.
As for `C[As](=O)(O)c1cccc(C(=O)O)c1`, the activation is inactive: 0.07%.
As to `O=[As](O)(c1ccc(O)cc1)c1ccccc1O`, the activation was inactive: 1.1%.
To `COc1ccc(N/C(=N/P(=O)(N2CCOCC2)N2CCOCC2)N2CCOCC2)cc1` belongs inactive: 0.2%.
Regarding `COc1ccc2nc(NP(=O)(c3ccccc3)c3ccccc3)sc2c1`, the activation is inactive: -2.34%.
On to `COc1cc(I)ccc1[As](=O)(O)O`, for which the activation is inactive: 0.25%.
Under `Cc1c2c(nc3ccccc13)SC(C(Cl)Cl)C2` (centres undefined) stands inactive: -0.83%; under `O=C(OC1CN2CCC1CC2)C12CC3CC(CC(C3)C1)C2` (centres undefined), inactive: 0.34%; under `Cc1cc(=O)[nH]c(N[N+](=O)[O-])n1`, inactive: 0.21%.
To `COc1cc(C2NCCC3(OCCO3)C2(C)C)cc(OC)c1OC` (centres undefined) belongs inactive: -0.74%; to `CCOP(=O)(Nc1cccc2ccccc12)OCC`, inactive: 0.4%.
To `Nc1cccc2c([As](=O)(O)O)cccc12` belongs inactive: 0.95%.
`Cc1ccc(NCCc2c([N+](=O)[O-])cc([N+](=O)[O-])cc2[N+](=O)[O-])cc1`: the activation is inactive: 0.25%.
As to `CCCOP(=S)(Nc1nc(N)cc(=O)[nH]1)OCCC`, the activation was inactive: 2.28%.
Regarding `O=[As](O)(c1cccc(O)c1)c1cccc(O)c1`, the activation is inactive: 1.44%.
Under `Cc1cccc(OCC(=O)OC2CN3CCC2CC3)c1` (centres undefined) stands inactive: -0.46%; under `O=C(OC1CN2CCC1CC2)c1ccc(Cl)cc1` (centres undefined), inactive: 0.62%; under `COc1cc(C(=O)NCC2(N3CCOCC3)CCCCC2)cc(Cl)c1OC(C)C`, inactive: -2.64%.
Under `O=[As](O)(O)c1cccnc1` stands inactive: 0.83%; under `CCOP1(=S)c2c(C)nn(CCC#N)c2N=C(c2ccc(F)cc2)N1C` (centres undefined), inactive: -0.05%.
Under `O=[N+]([O-])c1ccc2c(c1)nnn2O` stands inactive: 0.19%; under `Nc1ccccc1[As](=O)(O)c1ccccc1`, inactive: -0.01%; under `O=C(O)COc1ccc([As](=O)(O)O)cc1[N+](=O)[O-]`, inactive: -0.8%.
Turning to `CCOP1(=S)c2c(C)nn(CCC#N)c2N=C(c2ccccc2F)N1C` (centres undefined), the activation was inactive: -0.71%.
Under `O=P(Nc1nccs1)(c1ccccc1)c1nc2ccccc2s1` (centres undefined) stands inactive: -1.52%; under `O=P(Nc1nccs1)(Oc1ccccc1)Oc1ccccc1`, inactive: 0.5%; under `CS(=O)(=O)c1cc([N+](=O)[O-])c2no[n+]([O-])c2c1`, inactive: 0.93%.
To `Nc1cccc([As](=O)(O)c2ccccc2)c1` belongs inactive: 0.43%; to `O=P1(Nc2ccc(Br)cn2)COc2ccccc2OC1`, inactive: 1.93%; to `O=[As](O)(c1cccs1)c1cccs1`, inactive: 1.49%.
To `Cc1ccc(OCC(=O)OC2CN3CCC2CC3)cc1` (centres undefined) belongs inactive: 0.02%; to `O=P1(Nc2ncccn2)COc2ccccc2OC1`, inactive: 0.73%; to `CN(C)C1(CNC(=O)c2ccc(S(C)(=O)=O)cc2)CCCCC1`, inactive: 0.45%.
For `O=C(/C=C/c1ccccc1)OC1CN2CCC1CC2` (centres undefined), the activation was inactive: -0.66%.
Under `Cc1nn(-c2ccccc2)c2c1P(=O)(N1CCOCC1)N(C)C(c1ccccc1)=N2` (centres undefined) stands inactive: -0.83%.
Under `CC1CCC(C(C)C)C(OP(=O)(Nc2ccccn2)c2ccccc2)C1` (centres undefined) stands inactive: -1.27%; under `CC(C)/C=N\N=C(\N)N[N+](=O)[O-]`, inactive: 0.75%.
To `CN(C(=O)Cc1ccc(Cl)c(Cl)c1)[C@@H]1CCCC[C@H]1N1CCCC1` belongs inactive: -1.06%.
Take `O=[As](O)(c1ccccc1Br)c1ccccc1Br`: the activation was inactive: 1.22%.
Under `CC1(CBr)Cn2c(nc3ccccc3c2=O)S1` (centres undefined) stands inactive: -0.08%.
Regarding `Clc1n[nH]nc1-c1nn[nH][15n]1`, the activation was inactive: 0.15%.
To `CC(C)(C)C(=O)NC(Sc1ncccn1)C(Cl)(Cl)Cl` (centres undefined) belongs inactive: -0.67%; to `O=P1(Nc2ccccn2)COc2ccccc2OC1`, inactive: -0.76%.
To `CCOP(=O)(Nc1ccc(C)cn1)OCC` belongs inactive: 1.47%; to `c1nnnn1CCn1cnnn1`, inactive: 1.09%; to `CC(C)C(=O)NC(Sc1ccccc1)C(Cl)(Cl)Cl` (centres undefined), inactive: -2.38%.
Under `O=P(Nc1nccs1)(c1ccccc1)c1ccccc1` stands inactive: 1.66%; under `O=C(OC1CN2CCC1CC2)c1cccc(Cl)c1` (centres undefined), inactive: 0.74%; under `Nc1ccc([As](=O)(O)c2ccc([N+](=O)[O-])cc2)cc1`, inactive: 0.77%.
As for `C(Cc1nn[nH]n1)Cc1nn[nH]n1`, the activation is inactive: 2.3%.
For `O=[As](O)(c1ccccc1)c1ccc(O)cc1`, the activation is inactive: 0.7%.
To `O=[N+]([O-])c1ncn(CCn2cnc([N+](=O)[O-])n2)n1` belongs inactive: -0.63%; to `CC(=O)NC(SC(=S)N(C)C)C(Cl)(Cl)Cl` (centres undefined), inactive: 0.69%; to `O=P(Nc1nc2ccccc2s1)(c1ccccc1)c1ccccc1`, inactive: -0.14%.
To `O=P(Nc1ccccn1)(c1ccc(Br)cc1)c1ccc(Br)cc1` belongs inactive: 0.13%; to `Cc1ccccc1OP(=O)(Nc1ccccn1)Oc1ccccc1C`, inactive: -0.51%.
As to `CN(C)C(=O)Oc1noc2ccccc12`, the activation was inactive: 1.05%.
Under `O=c1c2cc([N+](=O)[O-])ccc2[nH]c2c([N+](=O)[O-])cc([N+](=O)[O-])cc12` stands active: 23.3%; under `CCC(=O)N1C2C3N(C(=O)CC)C1C1N(C(=O)CC)C(C(N1C(=O)CC)N3C(=O)CC)N2C(=O)CC`, inactive: -0.04%; under `COC(=O)c1cc2c(s1)N=C(c1ccccc1)N(C)P2(=O)N1CCOCC1` (centres undefined), inactive: 0.43%.
Under `Cc1ccc(OP(=O)(Nc2ccccn2)Oc2ccc(C)cc2)cc1` stands inactive: -0.18%.
Under `CC(=O)NC(SC(=S)N(CC(C)C)CC(C)C)C(Cl)(Cl)Cl` (centres undefined) stands inactive: 1.01%.
In the case of `c1ccc(-c2nn[nH]n2)c(-c2nn[nH]n2)c1`, the activation is inactive: 1.58%.
Take `CCOC(=O)NC(Sc1ccccc1)C(Cl)(Cl)Cl` (centres undefined): the activation was inactive: 0.02%.
To `Cc1ccc(NP(=O)(Oc2cccc(C)c2)Oc2cccc(C)c2)nc1` belongs inactive: -0.4%.
To `CCNC(=S)/N=C(\N)N[N+](=O)[O-]` belongs inactive: -0.44%; to `O=C(NC1CCS(=O)(=O)C1)NP(=S)(Oc1ccccc1)Oc1ccccc1` (centres undefined), inactive: -1.6%; to `CC(=O)Nc1ccc([As](=O)(O)O)c(O)c1`, inactive: 0.72%.
On to `CC(=O)Nc1ccc(Oc2c([N+](=O)[O-])cc([N+](=O)[O-])cc2[N+](=O)[O-])cc1`, for which the activation was inactive: -0.73%.
To `CC(C)(C)C(=O)NC(Sc1ccccc1)C(Cl)(Cl)Cl` (centres undefined) belongs inactive: -3.44%; to `O=P1(Nc2nc3ccc(Cl)cc3s2)COc2ccccc2O1` (centres undefined), inactive: -0.7%; to `CCOc1ccc(C2=NCC(CBr)S2)cc1` (centres undefined), inactive: 2.47%.
Turning to `Oc1ccccc1CNc1ccccn1`, the activation was inactive: -0.14%.
Under `Cc1c2non([O-])c-2c(C)[n+](=O)[n+]1[O-]` stands inactive: 4.23%.
To `O=C(NC(Sc1ccncn1)C(Cl)(Cl)Cl)c1ccccc1` (centres undefined) belongs inactive: 0.88%; to `CC(C)CC(=O)NC(Sc1ccc(Cl)cc1)C(Cl)(Cl)Cl` (centres undefined), inactive: -1.85%; to `Nc1cc(N)c2nonc2c1[N+](=O)[O-]`, inactive: -0.12%.
To `Clc1ccc(Cl)c(NC2=NCC(CBr)S2)c1` (centres undefined) belongs inactive: -0.07%; to `CN1CCCC(OC(=O)C(c2ccccc2)c2ccccc2)C1` (centres undefined), inactive: 0.39%; to `COc1ccccc1OP(=O)(Nc1ccc(C)cn1)Oc1ccccc1OC`, inactive: -1.02%.
For `Cc1ccc(OP(=O)(Nc2nccs2)Oc2ccc(C)cc2)cc1`, the activation is inactive: 0.31%.
To `Cc1ccc(N/C(=N/P(=O)(N2CCOCC2)N2CCOCC2)N2CCOCC2)cc1` belongs inactive: 1.64%.
Under `NC(=O)c1cc([N+](=O)[O-])cc([N+](=O)[O-])c1N` stands inactive: 0.15%; under `Nc1cccc2ccc([As](=O)(O)O)cc12`, inactive: 1.01%; under `CCN(N=Nc1nonc1N)c1nonc1N`, inactive: 1.41%.
Under `CCOP(=O)(Nc1ccccc1)OCC` stands inactive: -0.23% and inactive: -1.05%.
Regarding `Cc1cc(SC(NC(=O)c2ccc(F)cc2)C(Cl)(Cl)Cl)ncn1` (centres undefined), the activation is inactive: 0.46%.
To `Cc1ccc(NP(=O)(Oc2ccccc2F)Oc2ccccc2F)nc1` belongs inactive: 1.69%.
